## Yeast mating assay 1: variants of the scFv Ab-14

Data: MIT Lincoln Laboratory AlphaSeq set, Engelhart et al. 2022, doi:10.1038/s41597-022-01779-4, as distributed in FLAb.

Target peptide (SARS-CoV-2 spike, HR2 region): PDVDLGDISGINAS

Parent: Ab-14, a human scFv built as VH, three GGGGS repeats, VL. Only the CDRs of the light chain vary.
VH: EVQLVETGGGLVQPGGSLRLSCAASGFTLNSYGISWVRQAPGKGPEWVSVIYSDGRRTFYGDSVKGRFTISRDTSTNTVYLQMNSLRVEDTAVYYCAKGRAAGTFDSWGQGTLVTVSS
VL: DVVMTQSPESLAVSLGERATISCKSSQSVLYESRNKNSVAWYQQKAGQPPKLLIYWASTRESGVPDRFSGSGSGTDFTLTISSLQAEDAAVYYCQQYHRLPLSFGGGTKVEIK

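The starting antibody came from a phage panning campaign against this peptide. The library (AAYL50) carries one to three amino acid substitutions per variant, with no insertions or deletions. AlphaSeq pools MATa yeast showing the antibodies with MATalpha yeast showing the peptide. After mating in shaken culture at 30 °C for 16 h, diploids were selected and their barcode pairs sequenced. The ratio of observed to expected reads was calibrated, replicate by replicate, on BCL2-family standards whose Kd was known from biolayer interferometry. There are three technical replicates.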

Variants are written as CDR1, CDR2 and CDR3 of the light chain (limits as in the source). Parent: KSSQSVLYESRNKNSVA, WASTRES, QQYHRLPLS.
Scale: log10 of Kd in nM, estimated from mating counts; low values are strong binders.
Replicates are averaged; those with no signal do not enter the mean.
"ND" marks a missing value. The strain was present, yet no cells mated with the target were sequenced in that replicate, which points to weak or no binding.

CDR-L1	CDR-L2	CDR-L3	log10 Kd (nM) by replicate	log10 Kd (nM), mean	control signals
KSSQSVLYESRNKNSVA	GASTRES	GQYHRLPLI	0.09 0.45 0.28	0.27	2 of 9 (4.23)
QSSQSVLYESRNKNSVA	WASTRES	QQYHRLPLS	1.23 1.26 1.48	1.32	2 of 9 (4.14)
KSSQSVLYESRNKNRVI	WASTRES	QQYHRLPLS	3.92 ND ND	3.92	3 of 9 (4.45)
VSSQSVLYESRNKNSVA	WETTRES	QQYHRLPLS	4.10 ND 6.11	5.10	1 of 9 (4.03)
KSSQSVLYEYRNKNRVH	WASTRES	QQYHRLPLS	ND ND ND	ND	0 of 9
KSSQSVLYECRNKNEVA	SASTRES	QQYHRLPLS	ND ND ND	ND	2 of 9 (4.41)
KSSQSLLYESRNKWSVA	WASTRES	QQYHRHPLS	1.79 1.39 1.44	1.54	4 of 9 (3.80)
ISSQSVLYESRNKNSVA	WASTVES	QQYHRLTLS	ND 2.53 2.78	2.66	4 of 9 (3.90)
KSSQSVLYESCVKNSVA	WCSTRES	QQYHRLPLS	ND ND ND	ND	4 of 9 (4.16)
KSSQSVLCECRNKNSVA	WASTRES	QQYHRSPLS	ND ND ND	ND	0 of 9
KSSQSVLNESRNKYLVA	WASTRES	QQYHRLPLS	6.49 ND ND	6.49	3 of 9 (3.80)
KSSQSVLYESRNKNSAA	WASFRES	QQYHRDPLS	ND ND ND	ND	0 of 9
KHSQSVLYESRNKNSVA	WASTRTS	QQYHRLQLS	ND ND ND	ND	0 of 9
KSSYSVLYESRNKNSVC	WASTRES	QQYHRLDLS	ND 4.32 ND	4.32	2 of 9 (3.16)
KASQSVLYETRNKNSVA	WASTRES	QQYQRLPLS	0.51 0.80 0.77	0.70	2 of 9 (5.20)
KYSQSVLYESRNYNSVA	WASTREE	QQYHRLPLS	0.55 0.82 0.70	0.69	1 of 9 (4.78)
KFSQSVLYESRNKNSVA	HASFRES	QQYHRLPLS	-0.14 0.16 -0.03	0.00	2 of 9 (5.62)
NSSQSVLYESRNKNSVA	WHSTRES	QQYHRLPLS	ND 4.62 ND	4.62	4 of 9 (3.78)
KSVQSVLYESRNKNSVA	WASTRES	QQYMRLELS	3.83 3.10 ND	3.47	2 of 9 (3.83)
KSSQSVLKESRNKNSVA	WAMTRFS	QQYHRLPLS	3.29 2.73 2.73	2.91	4 of 9 (4.83)
KSSQSCLYESRNKNSVA	WASTMEY	QQYHRLPLS	ND ND ND	ND	0 of 9
KSSQSVLYESRNKNSVA	WASTRES	QIWHRGPLS	ND ND ND	ND	0 of 9
KSSQSVLYEIRNKNSVA	WASTRES	RQYHRLPLM	3.91 ND ND	3.91	3 of 9 (4.38)
KSSQSQLYESRNKNSVA	WASTRES	QQYHRLPLS	0.52 0.84 0.81	0.72	4 of 9 (4.18)
KTSQSELYELRNKNSVA	WASTRES	QQYHRLPLS	ND ND ND	ND	1 of 9 (5.03)
KSSQSVLYESRFKNSVA	WASTPES	QQYHRLPQS	4.66 2.95 4.12	3.91	5 of 9 (4.07)
KSSQSVLYESRDKNLVA	WASTRES	QQYIRLPLS	ND ND ND	ND	0 of 9
KSSQSVLYESRNNNWVA	WASTRES	QQYHRWPLS	ND ND ND	ND	0 of 9
KSSISNLYEERNKNSVA	WASTRES	QQYHRLPLS	0.12 0.41 0.26	0.26	4 of 9 (3.73)
KSSQSSLYESRSKNSVA	WASTRIS	QQYHRLPLS	0.78 0.52 0.27	0.52	0 of 9
KSSNAVLYESRNKNSVA	WASTRES	QQYHMLPLS	0.88 0.94 0.90	0.91	0 of 9
KSSQSVLYESRNKNSVS	WLSTRES	QQYGRLPLS	ND ND ND	ND	1 of 9 (4.18)
KSSQSCLYESRTKNSVA	WASTIES	QQYHRLPLS	ND ND ND	ND	0 of 9
KSSQLVLYESRNKNSVA	WAATQES	QQYHRLPLS	5.99 ND 5.46	5.73	1 of 9 (3.56)
KGSQSVLYESRNKNSKA	WASTLES	QQYHRLPLS	ND ND ND	ND	2 of 9 (4.19)
KSSQSVHYESRNKNSVA	WASTRES	QQYHRFPCS	ND 3.57 ND	3.57	1 of 9 (3.26)
KSSQSVLYESRNKNSVA	QLSTRES	QQYHRLPLA	0.40 0.72 0.61	0.57	5 of 9 (4.54)
KSSQSVLYESRNKNSVA	WASIRED	QQYHRLPLS	-0.17 0.20 0.06	0.03	2 of 9 (3.60)
WSMQSVLYESGNKNSVA	WASTRES	QQYHRLPLS	3.17 2.70 3.58	3.15	3 of 9 (4.06)

The 3 strongest on average among those seen in every replicate, once more:

| CDR-L1 | CDR-L2 | CDR-L3 | log10 Kd (nM) by replicate | log10 Kd (nM), mean | control signals |
|---|---|---|---|---|---|
| KFSQSVLYESRNKNSVA | HASFRES | QQYHRLPLS | -0.14 0.16 -0.03 | 0.00 | 2 of 9 (5.62) |
| KSSQSVLYESRNKNSVA | WASIRED | QQYHRLPLS | -0.17 0.20 0.06 | 0.03 | 2 of 9 (3.60) |
| KSSISNLYEERNKNSVA | WASTRES | QQYHRLPLS | 0.12 0.41 0.26 | 0.26 | 4 of 9 (3.73) |

For reference, the parent read 0.65 as the reference entry and 1.68 as a member of this library.
Nonspecific signal, from three strains lacking the peptide, appeared in 18% of pairings of library AAYL50, centred on 4.19 (5% of these signals below 2.99); values are not corrected for it. Also given: how often the same scFv was detected with the empty control strains, with their mean in brackets.